# AlphaSeq binding of Ab-14 heavy chain variants to a spike HR2 peptide

Data: MIT Lincoln Laboratory AlphaSeq set, Li et al. 2023, doi:10.1038/s41467-023-39022-2, as distributed in FLAb.

Binding partner: SARS-CoV-2 spike HR2 peptide, sequence PDVDLGDISGINAS.

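The variants were designed computationally from a first round of random CDR variants and then made and measured. Group labels follow the data file (Ctrl: baseline library sampled from a position-specific scoring matrix, with some repeated check sequences; GP: Gaussian process model; GPLM: also part of the Gaussian process libraries; Gen: genetic algorithm; a sequence that several methods proposed may carry one label only). AlphaSeq pools MATa yeast showing the antibodies with MATalpha yeast showing the peptide. Binding brings cells together so that they mate, and sequencing counts the barcode pairs among the diploids. Each replicate has its own calibration line, from reference interactions of the BCL2 family. Mating was done six times.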

Each scFv is VH, three GGGGS repeats, VL, as in the parent Ab-14, and differs from it in the CDRs of the heavy chain only.
VH: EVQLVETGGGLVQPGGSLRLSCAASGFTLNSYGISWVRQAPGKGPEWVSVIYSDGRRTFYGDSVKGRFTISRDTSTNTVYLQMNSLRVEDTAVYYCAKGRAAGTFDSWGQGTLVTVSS
VL: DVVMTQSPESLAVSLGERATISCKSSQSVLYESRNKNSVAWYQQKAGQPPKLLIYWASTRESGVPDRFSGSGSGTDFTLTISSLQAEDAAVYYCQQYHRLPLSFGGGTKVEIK

Positions count from residue 1 of the parent VH; G26T puts T in place of G. Scale: log10 of Kd in nM, estimated from mating counts; low values are strong binders. "nd" marks a missing value. The strain was present, yet no cells mated with the target were sequenced in that replicate, which points to weak or no binding.

| changes | group | replicates, log10 nM | empty controls |
|---|---|---|---|
| G26T+F27L+D106N+S107L | Ctrl | nd / nd / nd / nd / nd / nd | 0/18 |
| A101I+D106N | Ctrl | nd / nd / nd / nd / nd / nd | 0/18 |
| R56L+G61I+A101W+G103S | Ctrl | nd / nd / nd / nd / nd / nd | 0/18 |
| T28H+R56E+F59A+R100D+A101E+S107W | Ctrl | 0.10 / nd / 0.22 / nd / nd / nd | 0/18 |
| G99Q+S107L | Ctrl | nd / nd / nd / nd / nd / nd | 0/18 |
| L29I+S31E+F59A | Ctrl | 0.63 / -0.30 / -0.13 / -0.32 / -0.31 / -0.40 | 0/18 |
| T28N+N30M+T104N+F105P+S107N | Ctrl | nd / nd / 2.45 / nd / nd / nd | 1/18 (1.39) |
| S31E+T58V | Ctrl | nd / nd / nd / nd / nd / nd | 0/18 |
| L29N+R100T | Ctrl | 1.83 / 0.61 / 2.08 / 1.18 / 0.12 / 0.10 | 1/18 (1.52) |
| G61A+G99H | Ctrl | 2.17 / 1.85 / 2.37 / 2.02 / 2.48 / 1.75 | 2/18 (2.63) |
| F27E+D106E | Ctrl | 1.61 / 1.42 / nd / 1.10 / 1.47 / 1.78 | 0/18 |
| T58V+F59S+V64A+D106E+S107H | Ctrl | nd / nd / nd / nd / nd / nd | 0/18 |
| L29T+K65E+D106R | Ctrl | nd / nd / nd / nd / nd / nd | 0/18 |
| T28C+L29V+G99D+S107Q | Ctrl | nd / nd / nd / nd / nd / nd | 0/18 |
| I51D+G61K+D62G+F105I+S107L | Ctrl | nd / nd / nd / nd / nd / nd | 0/18 |
| F59H+G99C+R100K+A101E+F105N+D106T | Ctrl | nd / nd / nd / nd / nd / nd | 0/18 |
| G103K | Ctrl | nd / nd / nd / nd / nd / nd | 0/18 |
| T28H+N30E+G61L+K65R+R100H | Ctrl | nd / nd / nd / nd / nd / nd | 0/18 |
| T28N+L29I | Ctrl | nd / -0.61 / nd / 0.11 / -0.22 / nd | 0/18 |
| N30D+Y60M+D106T+S107D | Ctrl | nd / nd / nd / nd / 1.86 / nd | 0/18 |
| G26P+S31D+Y32Q+F59S | Ctrl | nd / nd / nd / 1.12 / nd / nd | 1/18 (1.43) |
| G26L+T28S+S31M+F59A+D106K | Ctrl | nd / nd / nd / nd / nd / nd | 0/18 |
| S31D+S53R+R56F+A101H | Ctrl | nd / 2.11 / nd / nd / nd / nd | 0/18 |
| G61I+F105T | Ctrl | nd / 0.01 / 0.16 / 0.70 / 0.34 / -0.17 | 0/18 |
| F27V+T28S+R100I+S107G | Ctrl | nd / 1.14 / 0.27 / nd / 1.09 / 0.42 | 0/18 |
| N30S+R100E+A101M+D106A+S107Q | Ctrl | nd / nd / nd / nd / nd / nd | 0/18 |
| T28N+R56L+G61L | Ctrl | 1.86 / 2.00 / 1.13 / 2.08 / 1.39 / 1.99 | 1/18 (2.06) |
| T28H+G55E | Ctrl | nd / nd / nd / nd / nd / nd | 0/18 |
| R56V+S63R | Ctrl | nd / nd / nd / nd / nd / nd | 0/18 |
| T28S+S31Q+G61S | Ctrl | 0.38 / 0.12 / 0.29 / -0.10 / 0.18 / 0.23 | 1/18 (3.39) |
| F59A+G61I+A101L | Ctrl | 0.71 / 0.42 / 0.58 / 0.53 / 0.82 / 2.14 | 1/18 (1.24) |
| T58C | Ctrl | nd / nd / nd / nd / nd / nd | 0/18 |
| S31D+A101Q | Ctrl+GPLM_Gen | 0.36 / -0.27 / 0.15 / -0.12 / -0.23 / -0.06; 0.83 / 0.98 / 0.78 / 0.10 / 0.87 / 1.96 | 0/36 |
| Y32Q+A102K | Ctrl | nd / nd / nd / nd / nd / nd | 0/18 |
| N30M+G61N+T104Q | Ctrl | nd / nd / nd / nd / nd / nd | 0/18 |
| F27I+T104G | Ctrl | nd / nd / nd / nd / nd / nd | 0/18 |
| R56I+R100D | Ctrl | 1.44 / 0.97 / 0.97 / 0.79 / 1.23 / 1.03 | 0/18 |
| F59E+R100F+A101I | Ctrl | 0.19 / -0.34 / 0.27 / -0.12 / 0.34 / 0.40 | 0/18 |
| G26L+G99R | Ctrl | nd / nd / nd / nd / nd / nd | 0/18 |
| N30E+S53A+S107C | Ctrl+GP_Gen | nd / nd / nd / nd / nd / nd; nd / 0.11 / 0.15 / -0.16 / 0.36 / 1.39 | 0/36 |
| N30S+S31D | Ctrl | 0.57 / -0.41 / -0.31 / nd / 0.01 / nd | 0/18 |
| N30E+V64N+A101N | Ctrl | nd / nd / nd / nd / nd / nd | 0/18 |
| R56V+A101M+T104A | Ctrl | nd / nd / nd / nd / nd / nd | 0/18 |

For reference, 3 entries of the list once more:

{"changes": "T28N+R56L+G61L", "group": "Ctrl", "replicates, log10 nM": "1.86 / 2.00 / 1.13 / 2.08 / 1.39 / 1.99", "empty controls": "1/18 (2.06)"}
{"changes": "T28N+L29I", "group": "Ctrl", "replicates, log10 nM": "nd / -0.61 / nd / 0.11 / -0.22 / nd", "empty controls": "0/18"}
{"changes": "A101I+D106N", "group": "Ctrl", "replicates, log10 nM": "nd / nd / nd / nd / nd / nd", "empty controls": "0/18"}

Empty control strains, which show no peptide, gave a signal in 1% of pairings with all heavy chain designs; the median was 2.08 and 95% of these signals were weaker than 0.84. No background was subtracted. For each scFv, signals with the empty controls are counted beside the result, with their mean in brackets. Of ten entries with the parent sequence, four were seen in most replicates (averages 0.34 to 2.37), three in one and three in none, so single entries are noisy. The authors averaged sequences with at least three values out of six and counted those with two or fewer as poor binders. A sequence measured in both rounds can read differently, since the two assays cover different ranges. Where one sequence has several entries in the source, the replicates are listed entry by entry, parted by semicolons.